Laboratory results from BindingDB's records for 29870665.

Amino acid sequences for entries named in this document (tags omitted). Residues count along the entry.
UniProt O42275, 24-633 limits assumed: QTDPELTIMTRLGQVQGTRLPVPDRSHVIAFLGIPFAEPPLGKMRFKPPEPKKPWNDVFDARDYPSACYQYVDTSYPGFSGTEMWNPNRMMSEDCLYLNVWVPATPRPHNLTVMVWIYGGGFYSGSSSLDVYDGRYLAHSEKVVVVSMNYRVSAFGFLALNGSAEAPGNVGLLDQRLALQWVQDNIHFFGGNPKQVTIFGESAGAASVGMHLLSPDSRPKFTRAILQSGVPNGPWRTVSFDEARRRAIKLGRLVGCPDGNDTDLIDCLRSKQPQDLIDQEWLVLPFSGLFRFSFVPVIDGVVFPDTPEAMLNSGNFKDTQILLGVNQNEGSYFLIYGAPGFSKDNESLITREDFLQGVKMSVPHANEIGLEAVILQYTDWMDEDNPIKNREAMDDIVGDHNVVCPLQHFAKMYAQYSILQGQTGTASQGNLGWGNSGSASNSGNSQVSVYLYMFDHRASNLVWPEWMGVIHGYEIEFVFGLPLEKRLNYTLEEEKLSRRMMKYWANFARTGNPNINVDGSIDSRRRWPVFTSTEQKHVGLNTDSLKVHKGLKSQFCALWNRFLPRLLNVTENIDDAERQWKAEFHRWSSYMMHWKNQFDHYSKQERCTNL

Assays:
Acetylcholinesterase [1] = target: T1, Acetylcholinesterase (Electrophorus electricus, UniProt O42275); experiment: Resurrection of methylphosphonate-aged electric eel AChE assessed as enzyme reactivation using acetylthiocholine as substrate at pH 9 after 1 day by Ellman's assay relative to control
Acetylcholinesterase [2] = target: T1, Acetylcholinesterase; experiment: Resurrection of isopropyl phosphate-aged electric eel AChE assessed as enzyme reactivation using acetylthiocholine as substrate at pH 9 after 1 day by Ellman's assay relative to control

## Oc1cccnc1CN1CCCC1
Acetylcholinesterase [1]
  EC50: 1210 µM
Acetylcholinesterase [2]
  EC50: 1020 µM
